This assay is classed as in vivo. The note with it: dose equianalgesic to a 15 mg dose of hydrocodone. Here is the method: Equianalgesic doses of various opioids, in comparison to a 15 mg dose of hydrocodone, are set forth in Chart 1 below: […]

SMILES strings stand for the structures.

With `CN1CC[C@]23c4c5ccc(O)c4O[C@H]2C(=O)CC[C@H]3[C@H]1C5` [Hydromorphone], the “Equianalgesic Doses of Opioids: Calculated Dose” value is recorded as 3.375 mg.

The values above are taken from US20050020613A1, “Sustained release opioid formulations and method of use” (priority 2002, published 2005).
